The text below walks through data of ChEMBL document CHEMBL1151514, “Imetit and N-methyl derivatives. The transition from potent agonist to antagonist at histamine H3 receptors.1” (Bioorg Med Chem Lett, 1992).

Chains of the proteins cited; added tags and fusions are not shown. Lines headed by an entry give the natural chain unless they say otherwise; changes in a name come on top.
UniProt Q9QYN8: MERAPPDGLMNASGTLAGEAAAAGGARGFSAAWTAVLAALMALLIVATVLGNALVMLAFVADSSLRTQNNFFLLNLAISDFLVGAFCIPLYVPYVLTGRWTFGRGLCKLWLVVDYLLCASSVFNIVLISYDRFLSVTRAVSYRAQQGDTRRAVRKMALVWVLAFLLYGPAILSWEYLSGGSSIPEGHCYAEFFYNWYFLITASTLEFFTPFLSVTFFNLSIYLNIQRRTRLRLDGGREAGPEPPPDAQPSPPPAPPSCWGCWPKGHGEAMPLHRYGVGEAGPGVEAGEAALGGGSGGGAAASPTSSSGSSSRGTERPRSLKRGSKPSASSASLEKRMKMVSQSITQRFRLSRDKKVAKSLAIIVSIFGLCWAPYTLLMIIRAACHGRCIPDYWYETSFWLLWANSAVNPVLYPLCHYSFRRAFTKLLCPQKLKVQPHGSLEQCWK

The EC50 is the concentration needed to bring the measured effect to its halfway point. Low readings indicate an effect from little substance, high ones a need for much substance.

Structures are written as SMILES. Counter-ions that a name gives are not always drawn.

The assay deals with Histamine H3 receptor (Rattus norvegicus, UniProt Q9QYN8). As to the kind of experiment: The compound was evaluated for agonistic effect on release of [3H]histamine from rat brain cortical slices with L-[3H]histidine at 0.3 uM. The format is functional, tissue-based.

`N=C(N)SCCc1cnc[nH]1` [IMETIT DIHYDROBROMIDE] returned an EC50 of 1 nM.
